# Reference: patent publication US20060079453A1, “Hla binding peptides and their uses” (priority 2002, published 2006)
# Sequences of proteins named here, by UniProt entry; tags and fusion partners are left off. Residues count along the entry.
# UniProt Q30154, 30-266: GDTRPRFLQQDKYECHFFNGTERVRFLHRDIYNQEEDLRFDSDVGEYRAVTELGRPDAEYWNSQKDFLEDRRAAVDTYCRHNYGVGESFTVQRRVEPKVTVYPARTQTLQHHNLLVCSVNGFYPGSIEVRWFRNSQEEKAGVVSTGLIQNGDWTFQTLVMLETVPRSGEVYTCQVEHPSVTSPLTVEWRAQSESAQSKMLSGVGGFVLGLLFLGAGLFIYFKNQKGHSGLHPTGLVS
# UniProt P79483, 30-266: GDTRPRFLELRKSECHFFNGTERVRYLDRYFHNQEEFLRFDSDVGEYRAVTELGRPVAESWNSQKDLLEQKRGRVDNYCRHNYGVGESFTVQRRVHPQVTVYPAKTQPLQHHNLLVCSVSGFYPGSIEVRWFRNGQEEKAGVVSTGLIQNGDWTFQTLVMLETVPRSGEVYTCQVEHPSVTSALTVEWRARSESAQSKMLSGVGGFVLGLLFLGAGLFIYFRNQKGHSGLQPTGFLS
# Assays:
# Assay in all cases: biochemical
# Type in all cases: binding
# [1] = molecular target: HLA-DR DRB5*0101 (DR51) (Homo sapiens, UniProt P01903+Q30154); settings: DRB5 *0101
# [2] = molecular target: HLA-DR DRB4*0101 (DR53) (Homo sapiens, UniProt P01903+P13762, G164S); settings: DRB4 *0101
# [3] = molecular target: HLA-DR DRB3*0101 (DR52) (Homo sapiens, UniProt P01903+P79483)
# [4] = molecular target: HLA-DR DRB1*0802 (DR8) (Homo sapiens, UniProt P01903+P01911, A100R/A103L/A169T/F76Y/H45Y/I96F/K41T/L162R/M171V/P40S/Q125H/Q178H/Q39Y/Q99D/R218S/R42G/S66Y/V115G/W38E)
# [5] = molecular target: HLA-DR DRB1*0901 (DR9) (Homo sapiens, UniProt P01903+P01911, A100R/A103E/D57H/D86V/F55Y/F60I/F76Y/I96F/K127E/L162R/M171V/P40D/Q125H/Q99R/R33Q/R42F/S133A/S66N/T210M/V115G/W38K/Y107V/Y59G/Y89S); settings: DRB1 *0901
# [6] = molecular target: HLA-DR DRB1*0301 (DR3) (Homo sapiens, UniProt P01903+P01911, A100K/A102G/A103R/A169T/F55Y/I96L/K41T/L162R/M171V/P40S/Q125H/Q178H/Q39Y/R42S/S66N/T106N/T262R/W38E/Y61H)
# [7] = molecular target: HLA-DR DRB1*1101 (DR11) (Homo sapiens, UniProt P01903+P01911, A100R/A169T/A87E/I96F/K41T/L162R/M171V/P40S/Q125H/Q178H/Q39Y/Q99D/R42S/S66Y/T262R/V115G/W38E); settings: DRB1 *1101
# [8] = molecular target: HLA-DR DRB1*0401 (DR4) (Homo sapiens, UniProt P01903+P01911, A100K/A169T/F76Y/I96L/K127E/L162R/M171V/N62H/P40V/Q125Y/R42H/S133A/S149N/S66Y/V115G/V209L/W38E)
compound,measurement,setting,value
CC(C)C[C@H](NC(=O)[C@H](Cc1ccc(O)cc1)NC(=O)[C@H](CO)NC(=O)[C@H](Cc1ccc(O)cc1)NC(=O)[C@@H](N)CC(=O)O)C(=O)N[C@@H](CCC(N)=O)C(=O)N[C@@H](CC(=O)O)C(=O)N[C@@H](CO)C(=O)N[C@@H](CC(=O)O)C(=O)N1CCC[C@H]1C(=O)N[C@@H](CC(=O)O)C(=O)N[C@@H](CO)C(=O)N[C@@H](Cc1ccccc1)C(=O)N[C@@H](CCC(N)=O)C(=O)N[C@@H](CC(=O)O)C(=O)O,IC50,[1],> 40 µM
CSCC[C@H](NC(=O)[C@H](CCC(N)=O)NC(=O)[C@@H](NC(=O)[C@H](Cc1ccccc1)NC(=O)[C@H](C)NC(=O)[C@@H](NC(=O)CN)[C@@H](C)O)C(C)C)C(=O)N1CCC[C@H]1C(=O)N[C@@H](C)C(=O)N[C@@H](Cc1c[nH]cn1)C(=O)NCC(=O)N[C@@H](CC(C)C)C(=O)N[C@@H](Cc1ccccc1)C(=O)N1CCC[C@H]1C(=O)N[C@@H](Cc1c[nH]c2ccccc12)C(=O)O,IC50,[2],2.36 µM
same,IC50,[3],0.769 µM
CC[C@H](C)[C@H](NC(=O)CNC(=O)[C@H](CC(C)C)NC(=O)[C@H](CC(C)C)NC(=O)[C@H](CCCNC(=N)N)NC(=O)[C@H](CO)NC(=O)[C@@H](NC(=O)[C@H](Cc1ccc(O)cc1)NC(=O)[C@@H]1CCCN1C(=O)[C@H](CO)NC(=O)CNC(=O)[C@@H](NC(=O)CN)C(C)C)C(C)C)C(=O)N[C@@H](CS)C(=O)N[C@@H](CC(C)C)C(=O)O,IC50,[4],1.32 µM
same,IC50,[1],14.2 µM
CC[C@H](C)[C@H](NC(=O)[C@@H](NC(=O)CN)C(C)C)C(=O)N[C@@H](CC(C)C)C(=O)N[C@@H](Cc1ccc(O)cc1)C(=O)N[C@@H](CO)C(=O)N[C@@H](CC(=O)O)C(=O)N1CCC[C@H]1C(=O)N[C@@H](C)C(=O)N[C@@H](CC(=O)O)C(=O)N[C@@H](Cc1ccc(O)cc1)C(=O)N[C@@H](Cc1ccccc1)C(=O)N[C@@H](C)C(=O)N1CCC[C@H]1C(=O)NCC(=O)O,IC50,[1],14.2 µM
CC[C@H](C)[C@H](NC(=O)[C@@H](NC(=O)[C@H](Cc1c[nH]c2ccccc12)NC(=O)[C@H](C)NC(=O)[C@H](CS)NC(=O)[C@H](Cc1c[nH]cn1)NC(=O)[C@H](CO)NC(=O)[C@H](CC(=O)O)NC(=O)[C@H](CCC(=O)O)NC(=O)[C@H](CCCCN)NC(=O)[C@H](C)NC(=O)[C@H](CCCCN)NC(=O)[C@H](CC(C)C)NC(=O)[C@H](Cc1ccc(O)cc1)NC(=O)[C@@H](N)Cc1c[nH]cn1)[C@@H](C)O)C(=O)O,IC50,[4],34.9 µM
same,IC50,[5],> 77.3 µM
same,IC50,[3],301 µM
same,IC50,[6],34.8 µM
same,IC50,[7],> 60.6 µM
CC[C@H](C)[C@H](N)C(=O)NCC(=O)N[C@@H](Cc1ccc(O)cc1)C(=O)N[C@@H](Cc1ccc(O)cc1)C(=O)N[C@@H](CC(=O)O)C(=O)N[C@@H](C)C(=O)N[C@@H](CCC(N)=O)C(=O)N[C@@H](CCCCN)C(=O)N[C@@H](CC(C)C)C(=O)N[C@@H](CC(C)C)C(=O)N[C@@H](CCC(=O)O)C(=O)N[C@@H](CCCCN)C(=O)N[C@@H](CCSC)C(=O)NCC(=O)NCC(=O)O,IC50,[3],17.3 µM
same,IC50,[1],0.506 µM
CC[C@H](C)[C@H](N)C(=O)N1CCC[C@H]1C(=O)N[C@@H](CCCCN)C(=O)N[C@@H](CCC(=O)O)C(=O)N[C@@H](CCC(N)=O)C(=O)N[C@@H](CCCCN)C(=O)N[C@@H](Cc1ccc(O)cc1)C(=O)N[C@@H](CO)C(=O)N[C@@H](Cc1ccccc1)C(=O)N[C@@H](CC(C)C)C(=O)N[C@@H](CCC(N)=O)C(=O)N[C@@H](CC(N)=O)C(=O)N1CCC[C@H]1C(=O)N[C@@H](CCC(N)=O)C(=O)N[C@H](C(=O)O)[C@@H](C)O,IC50,[2],55.6 µM
same,IC50,[5],79.8 µM
same,IC50,[3],30.6 µM
same,IC50,[6],50 µM
same,IC50,[7],> 15.4 µM
CC(C)C[C@H](NC(=O)[C@H](CCCCN)NC(=O)[C@H](CC(C)C)NC(=O)[C@@H](N)CCCCN)C(=O)N[C@@H](Cc1ccc(O)cc1)C(=O)N[C@H](C(=O)NCC(=O)N[C@@H](CCC(=O)O)C(=O)N[C@@H](C)C(=O)N[C@H](C(=O)N[C@@H](CCCNC(=N)N)C(=O)N[C@H](C(=O)NCC(=O)N[C@@H](CC(=O)O)C(=O)N[C@@H](CCCNC(=N)N)C(=O)O)[C@@H](C)O)[C@@H](C)O)[C@@H](C)O,IC50,[1],0.731 µM
CC(C)C[C@H](NC(=O)[C@H](CCC(N)=O)NC(=O)[C@H](CCC(N)=O)NC(=O)[C@H](Cc1ccccc1)NC(=O)[C@H](C)NC(=O)[C@H](CCCNC(=N)N)NC(=O)[C@@H](N)CC(C)C)C(=O)N[C@@H](Cc1ccccc1)C(=O)N[C@@H](CC(C)C)C(=O)N[C@@H](CC(N)=O)C(=O)N[C@H](C(=O)N[C@@H](CC(C)C)C(=O)N[C@@H](CO)C(=O)N[C@@H](Cc1ccccc1)C(=O)N[C@H](C(=O)O)C(C)C)[C@@H](C)O,IC50,[1],0.253 µM
CC[C@H](C)[C@H](NC(=O)[C@H](C)NC(=O)[C@H](CCC(N)=O)NC(=O)[C@H](CCCNC(=N)N)NC(=O)[C@H](CC(C)C)NC(=O)[C@H](C)NC(=O)[C@@H](NC(=O)[C@H](Cc1c[nH]cn1)NC(=O)[C@H](Cc1c[nH]cn1)NC(=O)[C@@H]1CCCN1)[C@@H](C)O)C(=O)N[C@@H](CC(C)C)C(=O)N[C@@H](CO)C(=O)N[C@@H](Cc1c[nH]c2ccccc12)C(=O)NCC(=O)N[C@@H](CCC(=O)O)C(=O)N[C@@H](CC(C)C)C(=O)N[C@@H](CCSC)C(=O)N[C@H](C(=O)N[C@@H](CC(C)C)C(=O)N[C@@H](C)C(=O)O)[C@@H](C)O,IC50,[8],0.166 µM
